One compound from ChEMBL document CHEMBL1135549, “Oxygenated metabolites of anandamide and 2-arachidonoylglycerol: conformational analysis and interaction with cannabinoid receptors, membrane transporter, and fatty acid amide hydrolase” (J Med Chem, 2002) can be followed below.

Protein sequences, listed by entry. Tags and fused reporters are not part of them.
UniProt P20272, whole entry: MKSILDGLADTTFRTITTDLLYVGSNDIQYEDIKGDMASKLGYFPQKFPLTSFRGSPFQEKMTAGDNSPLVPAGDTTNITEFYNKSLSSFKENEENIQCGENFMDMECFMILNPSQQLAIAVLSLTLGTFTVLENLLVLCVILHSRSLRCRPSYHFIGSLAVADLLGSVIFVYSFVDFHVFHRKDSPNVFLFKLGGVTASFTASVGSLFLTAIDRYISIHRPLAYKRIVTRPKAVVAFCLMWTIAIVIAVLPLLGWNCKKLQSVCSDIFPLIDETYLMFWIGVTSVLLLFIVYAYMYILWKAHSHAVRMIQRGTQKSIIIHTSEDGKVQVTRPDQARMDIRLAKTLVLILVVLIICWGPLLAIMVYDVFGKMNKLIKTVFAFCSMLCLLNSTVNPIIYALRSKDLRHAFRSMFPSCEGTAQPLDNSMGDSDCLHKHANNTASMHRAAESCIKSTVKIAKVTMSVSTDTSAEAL

The target of this assay is Cannabinoid receptor 1 (Rattus norvegicus, UniProt P20272). Briefly: Displacement of [3H]CP-55940 from rat forebrain membrane which expresses Cannabinoid receptor 1 in the presence of PMSF. In short, it runs like this:
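Male Wistar rat forebrain membranes, stored at -80 °C. Rapid filtration assay with [3H]CP-55,940 and 50 μg membrane protein in 50 mM Tris·HCl, 2 mM Tris·EDTA, 3 mM MgCl2, 5 mg/mL BSA, pH 7.4, with 50 μM PMSF (final) added fresh. Incubated 1 h at 30 °C. Nonspecific binding with 10 μM AEA. Ki by nonlinear regression using a saturation-derived Kd.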

For the compound `CCCCC/C=C\C/C=C\C/C=C\C/C=C\CCCC(=O)OC(CO)CO` [2-ARACHIDONOYLGLYCEROL], the Ki (commonly the equilibrium dissociation constant of an inhibitor or competing ligand from its target) was 100 nM.
